Experimental data from patent US10966937B2, “Compositions and methods for delivery of polyunsaturated fatty acid derivatives and analogs” (Cytometix, Inc., priority 2015, dated 2021).

Key:
[1] = Phase 1 clinical trial of oral CMX-020, pharmacokinetics; details: human, oral 50 mg and 100 mg, after 5 days of BID dosing
[2] = test system: acute pain tail flick assay; experiment: Acute pain tail flick assay, CMX-020 and Remifentanil alone or co-administered; details: co-administered with Remifentanil intravenously over 10 minutes; 50%, 75% and 90% inhibition of tail flick response

In the case of `CCCCCC(=O)N(CC/C=C\C/C=C\C/C=C\CCCC(=O)NC1CC1)C(C)C` [CMX-020], the “time with therapeutic levels (PK levels above 40 ng/ml)” value [1] is reported as 4 to 8 h and the “analgesic effect of the combinational therapy (isobologram)” value [2] is reported as “greater than a simple additive effect”.
